This passage reports Kd results from patent US6214615A (The United States of America as represented by the …, priority 1996, dated 2001).

Amino acid sequences for entries named in this document (tags omitted). Residues count along the entry.
UniProt P14416, 1-414 isoform P14416-2: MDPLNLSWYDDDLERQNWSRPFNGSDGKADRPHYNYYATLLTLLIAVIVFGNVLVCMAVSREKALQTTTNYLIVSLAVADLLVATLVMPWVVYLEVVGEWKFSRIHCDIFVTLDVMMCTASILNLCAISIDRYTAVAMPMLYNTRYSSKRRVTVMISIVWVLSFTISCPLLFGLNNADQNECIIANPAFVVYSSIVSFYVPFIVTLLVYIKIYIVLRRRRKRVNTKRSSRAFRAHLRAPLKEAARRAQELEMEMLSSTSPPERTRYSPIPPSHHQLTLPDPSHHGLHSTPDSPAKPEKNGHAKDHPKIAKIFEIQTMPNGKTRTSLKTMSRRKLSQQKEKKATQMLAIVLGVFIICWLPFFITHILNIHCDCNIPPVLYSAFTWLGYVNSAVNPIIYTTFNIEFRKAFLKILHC

Molecules are shown by their SMILES.

In the assay the target is human dopamine D2 receptor (Homo sapiens, UniProt P14416). As to the kind of experiment: Saturation radioligand binding to membranes of transfected COS-7 cells. Also on record: rescreened with the S1 probe alone to identify those most likely to be full length; expressed in transfected cells; host or cells: COS-7 cells (transient, 16A-pCD-PS DNA). To be noted: 30 min at 30° C., COS-7 transfected with 16A-pCD-PS.

One may read the Kd as a measure of binding affinity in units of concentration. Read a low Kd as tighter binding. As for `CCN1CCC[C@H]1CNC(=O)c1c(O)c(Cl)cc(Cl)c1OC` [^3 H-raclopride], the affinity, expressed as Kd, was 3.2 nM.
